# Measured affinities in a library of Ab-95 light chain variants

The measurements come from Engelhart et al. 2022 (doi:10.1038/s41597-022-01779-4) through the FLAb antibody collection.

The target is the same throughout: PDVDLGDISGINAS, from the HR2 region of SARS-CoV-2 spike.

Ab-95 is the parent antibody, in scFv form: VH, then three GGGGS repeats, then VL. The heavy chain is unchanged in all variants.
VH: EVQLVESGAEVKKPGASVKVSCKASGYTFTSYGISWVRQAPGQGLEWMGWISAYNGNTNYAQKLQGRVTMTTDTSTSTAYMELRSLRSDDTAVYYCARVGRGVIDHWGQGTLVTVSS
VL: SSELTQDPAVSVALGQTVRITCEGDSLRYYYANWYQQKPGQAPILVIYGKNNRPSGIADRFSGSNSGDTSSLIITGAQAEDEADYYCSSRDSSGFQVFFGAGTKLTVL

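Phage display of a naive human antibody library on the peptide gave the parent. The library (AAYL52) carries one to three amino acid substitutions per variant, with no insertions or deletions. Affinity was read by AlphaSeq, a pooled yeast mating assay with surface-displayed partners. The frequency of each diploid, read from paired DNA barcodes, reflects how well the two displayed proteins bind. Scores were corrected for input abundance and mapped to Kd with protein pairs of known affinity run in the same pool. The assay was run in three technical replicates.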

Each variant is given by its three light chain CDRs, as the data file delimits them; those of the parent are EGDSLRYYYAN, GKNNRPS, SSRDSSGFQVF.
All variants listed here change D91 of the VL, counted from its first residue.
Numbers give log10(Kd / nM), so 0 is 1 nM and 3 is 1 µM. Smaller is tighter.
Replicates are averaged; those with no signal do not enter the mean.
"nd" marks a missing value. The strain was present, yet no cells mated with the target were sequenced in any replicate, which points to weak or no binding.
Order: sorted from the lowest average up, undetected variants last.
In this assay the parent's reference entry averaged 2.31; its copy inside this library read 2.25.
Background: pairings of library AAYL52 with three empty control strains gave a value in 28% of cases (median 3.91, 5th percentile 2.90). Values in that range, when seen in few replicates, are hard to tell from nonspecific mating.

- EGDSLRYYYAN, GKNNRPN, SSRNSSGFQVF: 1.98 (3 of 3 replicates)
- EGDSLRKTYAN, GKNNRPS, SSRKSSGFQVF: 2.25 (3 of 3 replicates)
- EGDSLRYYYAN, GKNNRPS, SSRRSSGFQVF: 2.30 (3 of 3 replicates)
- VGDSLRYYYAN, GKNNRPS, SSRESSGFQVF: 2.37 (3 of 3 replicates)
- EGDSLRYYYAN, GKNNRPG, STRYSSGFQVF: 2.49 (3 of 3 replicates)
- EGDSLRYYYAN, GANNRPS, SSRCLSGFQVF: 2.50 (3 of 3 replicates)
- EGDSLRYYYAN, GKNNRPS, SSRYSSDFQVF: 2.97 (3 of 3 replicates)
- EGDSLPYYYAN, GKNNRPS, SSRPSSGFQVT: 2.98 (3 of 3 replicates)
- EGDSLRYYYAN, GKNNRPR, SKRESSGFQVF: 3.06 (2 of 3 replicates)
- EGMSLRYYYAN, GKNNRPR, SSRVSSGFQVF: 3.17 (2 of 3 replicates)
- EGDSLRHYYAN, LKNNRPS, SSRISSGFQVF: 3.34 (3 of 3 replicates)
- HGDSLRYYIAN, GKNNRPS, SSRMSSGFQVF: 3.41 (3 of 3 replicates)
- EHDSLRYYYAN, GKNNRPS, SSRWSSHFQVF: 3.54 (2 of 3 replicates)
- EGDSLRYYIAN, GKNNNPS, SSRGSSGFQVF: 3.76 (2 of 3 replicates)
- EGDSLRYYYAN, GKNNRPS, STRPQSGFQVF: 3.80 (2 of 3 replicates)
- EGDSARYYYAN, GKNNRPS, SSRASSFFQVF: 3.92 (3 of 3 replicates)
- EGDSLRYYYYN, GKNNRPS, SSRCSSSFQVF: 3.95 (1 of 3 replicates)
- EGISLRYYYAN, GKNNRKS, SSRMSSGFQVF: 4.06 (1 of 3 replicates)
- EGDSLRYYYAP, GKNCRPS, SSRWSSGFQVF: 4.06 (3 of 3 replicates)
- EGDSLRYYYMN, GKNSRPS, SSRWSSGFQVF: 4.12 (3 of 3 replicates)
- EGDSERYYYAN, GKNNRPS, SSRASSGFQVF: 4.15 (2 of 3 replicates)
- ENDSLRYYYAN, GKNNRPS, SSRESSGFQVF: 4.22 (2 of 3 replicates)
- EGDCLRYYYRN, GKNNRPS, SSRSSSGFQVF: 4.38 (1 of 3 replicates)
- EGDNLRYYYAN, GKNNRPS, WSRWSSGFQVF: 4.61 (2 of 3 replicates)
- ETDSLRYYYAN, FKNNRPS, SSRWSSGFQVF: 4.84 (3 of 3 replicates)
- WGDSLRYYYAN, GKNYRPS, SSRKSSGFQVF: 4.88 (1 of 3 replicates)
- EGDSWRYYYAN, GKNNRPS, SSRNSSGSQVF: 5.31 (1 of 3 replicates)
- HGDSLRYYYAN, GKNNRPS, SSRWSSGFQSF: nd (0 of 3 replicates)
- EGDSLYYYYAN, GKNNRPS, SSIESSGFQVF: nd (0 of 3 replicates)
- FGDSLRYYYAN, NKNNRPS, SSRQSSGFQVF: nd (0 of 3 replicates)
- EGDSLRYYYAN, GKNNRPS, SSRQNSGFLVF: nd (0 of 3 replicates)
- EGDSLRYYYAN, GTNNRPS, SSRQSSSFQVF: nd (0 of 3 replicates)
- EGDSLRYYYAN, GKNNRPS, GSRISSGFQTF: nd (0 of 3 replicates)
- EGDSLRYYYAN, GKNNRPS, SSRRSSGEQEF: nd (0 of 3 replicates)
- EGDSLRYYYAN, HKNNRPS, SPRVSSGFQVF: nd (0 of 3 replicates)
- EGDSLRYYAAN, GKNNRPS, SSRCESGFQVF: nd (0 of 3 replicates)